Reference: patent US7829066B2, “Assay for anti-metastatic agents” (Memorial Sloan-Kettering Cancer Center, priority 2006, dated 2010)

Legend:
[1] = system: lung metastasis; test: Inhibition of lung metastasis by a single agent (preliminary results); assay type: in vivo; conditions: as a single agent
Procedure: Putative agents are tested for their ability to inhibit a metastatic cell, using an assay of the invention. In one assay, using methods as described elsewhere herein, detectably labeled metastatic cells are inoculated into immunodeficient mice bearing tumors, and the mice are then treated with agents that belong to the Epiregulin class of growth factors (also known as EREG, a ligand of the EGFR/HER receptor family). Among the agents tested are agents that target the EGF receptor (including Erbitux, Iressa and Tarceva) and agents that target HER2 (e.g., Herceptin). It is expected that these agents will inhibit the seeding of the metastatic cells in the assay to a similar degree to which they inhibit metastasis. […] Other agents that are tested include combinations of HER1/EGFR and/or HER2 inhibitors with Celecoxib (Pfizer), which is a cyclooxygenase synthase-2 (COX-2) inhibitor. […] The action of the agents or combinations of agents in the seeding assay of the invention is expected to mirror the antimetastatic properties of the agents or combinations of agents.

[2] = system: detectably labeled metastatic cells; test: Seeding assay of the invention: seeding of tumors by detectably labeled metastatic cells in tumor-bearing immunodeficient mice; assay type: in vivo; conditions: single agent; result stated as similar to the lung metastasis result (Erbitux but not Herceptin inhibits)
From the text: Mammary tumor colonization assays. Both the parental MDA-MB-231 population and its metastatic derivative LM2 cells were infected with retrovirus expressing either a thymidine kinase-GFP-firefly luciferase (TGL) or a thymidine kinase-RFP-renilla luciferase (TRL) fusion protein^27. Infected cells were sorted by FACS. To assess mammary tumor seeding from circulation, 1×10^6 RFP expressing parental cells were first implanted into mammary gland #2 of immunodeficient mice as previously described^12. Once these RFP expressing tumors became palpable (100 mm^3), 1×10^5 GFP-luciferase expressing LM2 or parental cells were injected into the left ventricle of tumor-bearing animals. Colonization of mammary tumors was determined by luciferase bioluminescence measurements. Animals were sacrificed after 36 days, tumors removed, fixed in 4% paraformaldehyde, and frozen in OCT. Confirmation of mammary tumor seeding was achieved by visualizing tumor sections with a Zeiss Axiovert 200M microscope, as well as a Leica TCS SP2 AOBS inverted confocal microscope.
Putative agents are tested for their ability to inhibit a metastatic cell, using an assay of the invention. […]

Row | Substance | inhibition of lung metastasis [1] | inhibition of seeding of the metastatic cells [2]
1 | Herceptin: agent that targets HER2 | not Herceptin inhibits lung metastasis | a similar result is found
2 | Erbitux: agent that targets the EGF receptor | inhibits lung metastasis | a similar result is found
